## Binding of CDR-mutated scFvs to a peptide of the spike HR2 region

Data: MIT Lincoln Laboratory AlphaSeq set, Li et al. 2023, doi:10.1038/s41467-023-39022-2, as distributed in FLAb.

All variants were tested on one target, the spike HR2 peptide PDVDLGDISGINAS (SARS-CoV-2).

The variants keep the light chain, the linker and the frameworks of Ab-14 (scFv order VH, a 15-residue (Gly4Ser)3 linker, VL).
VH: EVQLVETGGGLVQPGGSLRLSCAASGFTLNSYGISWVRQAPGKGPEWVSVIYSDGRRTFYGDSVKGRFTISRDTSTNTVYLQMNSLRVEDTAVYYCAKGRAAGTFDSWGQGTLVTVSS
VL: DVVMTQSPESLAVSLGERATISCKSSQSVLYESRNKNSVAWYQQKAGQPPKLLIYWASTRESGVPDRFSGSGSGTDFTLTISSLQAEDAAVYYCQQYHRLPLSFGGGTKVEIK

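The parent was found by panning a naive human phage display library on the peptide. These sequences belong to a second round, designed from the earlier measurements on random variants of the parent. Group labels follow the data file (Ctrl: baseline library sampled from a position-specific scoring matrix, with some repeated check sequences; Rand: our label for a block that the file lists under HC and that is probably the random mutants of the ten best first-round binders; GP: Gaussian process model; GPLM: also part of the Gaussian process libraries; HC: hill climbing; Gen: genetic algorithm; Gibbs: Gibbs sampling; a sequence that several methods proposed may carry one label only). The assay is AlphaSeq: two haploid yeast populations carry antibody and antigen on their surface. The frequency of each diploid, read from paired DNA barcodes, reflects how well the two displayed proteins bind. Read counts were normalised to the haploid input and turned into Kd by a linear fit to BCL2-family pairs of known affinity, for each replicate. There are six technical replicates.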

Each variant is given by its three heavy chain CDRs, as the data file delimits them; those of the parent are GFTLNSYGIS, VIYSDGRRTFYGDSVK, GRAAGTFDS. Variants here have at most six changes. Kd is apparent (estimated from mating counts) and averaged on the log scale over replicates with a signal. Smaller is tighter. "nd" marks a missing value. The strain was present, yet no cells mated with the target were sequenced in any replicate, which points to weak or no binding. As a blank, each scFv also met three strains without target: over all heavy chain designs, 1% of these pairings were detected, typically at 120 nM and seldom below 7.0 nM. The control count says in how many pairings with the empty strains this scFv gave a signal. The authors averaged sequences with at least three values out of six and counted those with two or fewer as poor binders. Some sequences occur more than once in the pool; their replicates are pooled. Of ten entries with the parent sequence, four were seen in most replicates (averages 2.2 nM to 240 nM), three in one and three in none, so single entries are noisy. Values of this round are not directly comparable with the first-round values of the same sequences.

| CDR-H1 | CDR-H2 | CDR-H3 | group | Kd | detected | signal with controls |
|---|---|---|---|---|---|---|
| GFKLNSYGIS | VIYSDGRRTFYKDSVK | GRTAGTFDS | GP_Gen | 41 nM | 6/6 | 0/18 |
| GFELNSYGIS | VIYSDGRRTFYVDSVK | GKIAGTFDS | GP_Gibbs | 82 nM | 6/6 | 0/18 |
| GFCLNSYGIS | VIYSDGRRTFYSDSVK | GRAAGTFTS | Ctrl | nd | 0/6 | 0/18 |
| GFTLNSYGIS | VIYSDGRRTFYADAVK | GRAAGTFDS | Ctrl | 8.4 nM | 4/6 | 0/18 |
| GFSLNTYGIS | VIYSDGRRTFYGDRVK | GEAAGTFDS | GP_Gibbs | 5.7 nM | 6/6 | 1/18 |
| GFTLNEYGIS | VIYSDGRRTFYTDSVK | GRFAGTFDA | GPLM_HC | 1.6 nM | 6/6 | 0/18 |
| RFTLNSYGIS | VIYSDGRRTFYIDSVK | GRAAGTFDS | GP_HC | nd | 0/6 | 0/18 |
| GFTLNEYGIS | VIYSDGRRTFYGESVK | GRAAVTFDG | GP_HC | nd | 0/6 | 0/18 |
| GFDLNSYGIS | VIYSDGRRTFYGDSVK | GSEAGTFDS | GP_Gen | 760 pM | 6/6 | 0/18 |
| GFDLNSYGIS | VIYADGRRTFYGDSVK | GRAAGTFDS | Ctrl | 360 pM | 6/6 | 0/18 |
| GFELNSYGIS | VIYSDGRRTFYGDSVK | GQAAGTFDL | GPLM_Gen | 15 nM | 6/6 | 0/18 |
| GFTLNSYGIS | VIYSDGRRTFYGDSVK | ERAKCTFDS | Ctrl | 170 nM | 3/6 | 1/18 |
| GKTLNSYGIS | VIYSDGHRTFYDDSVK | GQLAGIFDS | Rand | nd | 0/6 | 0/18 |
| KFSLNEYGIS | VIYSDGRRTFYGDSVK | GSTAGTFDS | GP_Gibbs | 900 pM | 6/6 | 0/18 |
| GFNLNSYGIS | VIYSDGRRTFYGDSVK | GVKAGTFDS | GP_Gibbs | 14 nM | 6/6 | 0/18 |
| GFTLNSYGIS | VIYSDGRRTAYGDSVK | GENAGTFWS | Ctrl | nd | 0/6 | 0/18 |
| GFTLNSYGIS | VIYSDGKRTFYSDSVK | GREAGTFDS | Ctrl+GPLM_Gibbs | 670 pM | 12/12 | 2/36 |
| GFQLNEYGIS | VIYSDGRRTFYTDSVK | GRFAGTFDS | GPLM_HC | 3.6 nM | 6/6 | 0/18 |
| GFTLNSYGIS | VIYSDGRRTFYDDSVK | GQTAGTFDS | GPLM_Gen | 20 nM | 6/6 | 0/18 |
| GFWLNEYGIS | VIYSDGRRTFYHDSVK | GRAAGTFDS | GP_Gen | 650 pM | 6/6 | 0/18 |
| GFELNDYGIS | VIYSDGRRTEYIDSVK | GRAAGTFDS | GP_HC | 5.8 nM | 4/6 | 0/18 |
| GDTLNMYGIS | VIYSDGRRTFYGDSVK | GREAGTFDS | Ctrl | 5.7 nM | 6/6 | 0/18 |
| GFCLNSYGIS | VIYSDGRRTFYGDSVK | GRAAGTFDS | Ctrl | nd | 0/6 | 0/18 |
| GFTLNSYGIS | VIYSDGRRTFYADSVK | GRTAGTFDS | GPLM_Gen | 100 nM | 5/6 | 1/18 |
| GFTLENYGIS | VIYSDGRRTFYGDSVK | GRAAGTFDS | GP_HC | 2.6 nM | 6/6 | 0/18 |
| GFTLNSYGIS | VIYADGYRTFYGDDVK | GGEAGTFDS | Ctrl | 1.9 nM | 6/6 | 0/18 |
| GFNLNSYGIS | VIYSDGRRTFYGDSVK | GRQAGTFDA | GP_Gen | 5.5 nM | 6/6 | 0/18 |
| GFNLNSYGIS | VIYSDGRRTFYADQVK | GRTAGTFDS | GPLM_Gen | 1.7 nM | 6/6 | 0/18 |
| KSTLNELGIS | VIYSDGRRTFYTDSVK | GRCAGTFDS | Rand | nd | 0/6 | 0/18 |
| GFSLNSYGIS | VIYSDGRRTFYGDSVK | GKNAGTFDS | GPLM_Gen | 5.9 nM | 6/6 | 0/18 |
| GFELNSYGIS | VIYSDGRRTFYGDSVK | GQAAGTFDS | GPLM_Gen | 3.9 nM | 6/6 | 0/18 |
| GFMLNSYGIS | VIYSDGFRTFYSDSVK | DRAAGTFDE | Ctrl | nd | 0/6 | 0/18 |
| GFTLNEYGIS | VIYSDGYRTFYGDSVK | GRAAVTFDV | GPLM_HC | nd | 0/6 | 0/18 |
| GFYLNSYGIS | VIYSDGRRTFYGDSVK | GQTAGTFDV | GP_Gibbs | 4.7 nM | 2/6 | 0/18 |
| GFTLNSYGIS | VIYSDGRRTFYSDSVK | GREAGTFDS | Ctrl+GPLM_Gibbs | 990 pM | 12/12 | 1/36 |
| GFTLNSYGIS | VIYSDGWRTFYDDSVK | GQLAGTFDS | GPLM_HC | 53 nM | 1/6 | 0/18 |
| GFSLNDYGIS | VIYSDGRRTFYSDSVK | GRAAGTFDS | GPLM_Gen | 2.3 nM | 4/6 | 0/18 |
| GFSLNDYGIS | VIYSDGRRTFYGDSVK | GRWAGTFIS | GPLM_HC | 9.7 nM | 6/6 | 0/18 |
| GFTRNEYGIS | VIYSDGRRTFYTDSVK | GRFQGTFDS | Rand | 37 nM | 1/6 | 0/18 |
| GFNLNSYGIS | VIYSDGRRTFYSDSVK | GREAGTFDS | GP_Gen | 2.2 nM | 6/6 | 0/18 |
| GFRLNQYGIS | VIYSDGKRTFYGDSVK | GWAAGTFDS | Ctrl | 3.6 nM | 6/6 | 0/18 |
| GFSLNEYGIS | VIYADGRRTFYGDSVK | GSAAGTFDS | GP_HC | 290 pM | 6/6 | 1/18 |
| GFTLNSYGIS | VIYSDGRRAFYGDSVK | GEAAWTFDL | Ctrl | nd | 0/6 | 0/18 |
| GFNLNSYGIS | VIYSDGRRTFYGDRVK | GRIAGTFDS | GP_Gen | 6.5 nM | 1/6 | 0/18 |
| GFTLNDYGIS | VIYSDGRRTFYKDSVK | GRTAGTFIS | GP_HC | nd | 0/6 | 0/18 |
| GFELNSYGIS | VIYSDGRRTFYADKVK | GRTAGTFDS | GP_Gen | 11 nM | 5/6 | 0/18 |

Extract of 5 entries:

CDR-H1,CDR-H2,CDR-H3,group,Kd,detected,signal with controls
GFTLNSYGIS,VIYADGYRTFYGDDVK,GGEAGTFDS,Ctrl,1.9 nM,6/6,0/18
GFTLENYGIS,VIYSDGRRTFYGDSVK,GRAAGTFDS,GP_HC,2.6 nM,6/6,0/18
GFYLNSYGIS,VIYSDGRRTFYGDSVK,GQTAGTFDV,GP_Gibbs,4.7 nM,2/6,0/18
GFELNSYGIS,VIYSDGRRTFYADKVK,GRTAGTFDS,GP_Gen,11 nM,5/6,0/18
GDTLNMYGIS,VIYSDGRRTFYGDSVK,GREAGTFDS,Ctrl,5.7 nM,6/6,0/18